We go through 1 compound from patent US6355460B1 (Axys Pharmaceuticals, Inc., priority 1995, dated 2002).

By Ki is commonly meant a dissociation constant, usually derived from enzyme kinetics or from competition with a known ligand.

For the assay, the target named is T1, thrombin (Homo sapiens, UniProt P00734).
T1 construct: β-lactamase, plasmin, thrombin, trypsin, tryptase and urokinase
In words: In vitro enzyme inhibitor assay, thrombin. Type of assay: biochemical. Particulars: ambient zinc, no EDTA, read-out: Inhibition, (Ki, μM ± S.D.) [Zn]ambient.

Regarding `N=C(N)c1ccc2nc(-c3ccccn3)[nH]c2c1` [Compound 10, 5-amidino-2-pyrid-2-ylbenzimidazole], the Ki is 81.5 µM.
